According to paper PMC8284473, “Preliminary Characterization of NP339, a Novel Polyarginine Peptide with Broad Antifungal Activity” (Antimicrobial Agents and Chemotherapy, 2021):
Values after ≈ are worked out from the molar mass of the structure shown.

System: C. albicans NCTC 3179
Assay type: cell-based, Candida albicans
Conditions: NCTC 3179, 24 h

N=C(N)NCCC[C@H](NC(=O)[C@H](CCCNC(=N)N)NC(=O)[C@H](CCCNC(=N)N)NC(=O)[C@H](CCCNC(=N)N)NC(=O)[C@H](CCCNC(=N)N)NC(=O)[C@H](CCCNC(=N)N)NC(=O)[C@H](CCCNC(=N)N)NC(=O)[C@H](CCCNC(=N)N)NC(=O)[C@H](CCCNC(=N)N)NC(=O)[C@H](CCCNC(=N)N)NC(=O)[C@H](CCCNC(=N)N)NC(=O)[C@H](CCCNC(=N)N)NC(=O)[C@H](CCCNC(=N)N)NC(=O)[C@H](CCCNC(=N)N)NC(=O)[C@@H](N)CCCNC(=N)N)C(=O)O
MIC: 2 µM (≈ 4.72 µg/mL)
